In ChEMBL document CHEMBL3813622, “Anion inhibition profiles of α-, β- and γ-carbonic anhydrases from the pathogenic bacterium Vibrio cholerae” (Bioorg Med Chem, 2016):

Experiment: Inhibition of Helicobacter pylori alpha carbonic anhydrase preincubated for 15 mins by stopped-flow CO2 hydrase assay

S [HYDROGEN SULFIDE]
Ki: 690 µM
